Data from patent publication US6806267B1, “Apoptosis-inducing compounds” (priority 1998, dated 2004).

Protein sequences, listed by entry. Tags and fused reporters are not part of them.
UniProt P30536, whole entry: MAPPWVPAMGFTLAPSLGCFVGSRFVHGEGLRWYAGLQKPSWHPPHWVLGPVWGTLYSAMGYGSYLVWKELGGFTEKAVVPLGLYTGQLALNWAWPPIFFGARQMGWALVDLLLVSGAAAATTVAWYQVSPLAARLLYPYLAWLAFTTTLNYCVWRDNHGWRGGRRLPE

Biological target: T1, peripheral-type benzodiazepine receptor (PBR) (Homo sapiens, UniProt P30536)
T1 construct: Cell homogenates (50 μg protein) were incubated with 0.5-50 nM [^3H]; PK 11195; endogenous in cells; host or cells: HL-60 cell homogenate
Experiment: Radioligand binding assay, inhibition of [^3H]PK 11195 binding to HL-60 homogenates
Description: HL-60 cells were harvested by centrifugation at 600 g for 5 min and washing in phosphate-buffered saline. The resulting cell pellet was homogenised in 50 mM Tris/HCl buffer, pH 7.4 (2 ml), using an Ultraturrax homogeniser (10 sec) and then passed 5 times through a 21 gauge needle. Cell homogenates (50 μg protein) were incubated with 0.5-50 nM [^3H] PK 11195 in 50 mM Tris/HCl buffer, pH 7.4 (incubation buffer), in a total volume of 0.5 ml on ice. Total and non-specific/non-saturable binding in each case was determined in the absence and presence of 10 μM unlabelled PK 11195 respectively. All samples were incubated in triplicate for 60 min. The incubation mixtures were then filtered and counted as previously described (O'Beirne, et al., 1988). When testing the potency of a compound to inhibit [^3H] PK 11195 binding, samples were incubated with 2 nM [3H] PK 11195 and various concentrations (0.1 nM to 1 μM) of compound and subsequently treated exactly as above. The resulting Ki values were then generated by the use of the computer programs EBDA and LIGAND.
The amount of radioactivity bound in the presence of the displacer was expressed as a percentage of control bonding and the values represent the mean±SEM of triplicate determinations from one representative experiment performed at least twice. The Ki values were obtained as described in Methods section.

`CCC(C)N(C)C(=O)c1cc2ccccc2c(-c2ccccc2Cl)n1` (stereo not shown) [[^3H] PK 11195, reference compound] gave a Kd of 0.0177 ± 0.005 µM.
